Among the data in patent US20070264623A1, “Nanosensors” (PRESIDENT AND FELLOWS OF HARVARD COLLEGE, priority 2004, published 2007) are Ki values, retold here.

Protein sequences, listed by entry. Tags and fused reporters are not part of them. Residues count along the entry.
UniProt P00521, 128-379 limits assumed: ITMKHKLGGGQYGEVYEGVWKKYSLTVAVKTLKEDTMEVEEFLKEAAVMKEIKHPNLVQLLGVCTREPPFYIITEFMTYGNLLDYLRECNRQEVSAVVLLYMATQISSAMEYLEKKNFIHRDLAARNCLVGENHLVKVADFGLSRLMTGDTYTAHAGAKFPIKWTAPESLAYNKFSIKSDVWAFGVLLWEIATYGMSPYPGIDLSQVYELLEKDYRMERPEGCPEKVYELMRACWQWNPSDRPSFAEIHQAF
UniProt P00519, whole entry: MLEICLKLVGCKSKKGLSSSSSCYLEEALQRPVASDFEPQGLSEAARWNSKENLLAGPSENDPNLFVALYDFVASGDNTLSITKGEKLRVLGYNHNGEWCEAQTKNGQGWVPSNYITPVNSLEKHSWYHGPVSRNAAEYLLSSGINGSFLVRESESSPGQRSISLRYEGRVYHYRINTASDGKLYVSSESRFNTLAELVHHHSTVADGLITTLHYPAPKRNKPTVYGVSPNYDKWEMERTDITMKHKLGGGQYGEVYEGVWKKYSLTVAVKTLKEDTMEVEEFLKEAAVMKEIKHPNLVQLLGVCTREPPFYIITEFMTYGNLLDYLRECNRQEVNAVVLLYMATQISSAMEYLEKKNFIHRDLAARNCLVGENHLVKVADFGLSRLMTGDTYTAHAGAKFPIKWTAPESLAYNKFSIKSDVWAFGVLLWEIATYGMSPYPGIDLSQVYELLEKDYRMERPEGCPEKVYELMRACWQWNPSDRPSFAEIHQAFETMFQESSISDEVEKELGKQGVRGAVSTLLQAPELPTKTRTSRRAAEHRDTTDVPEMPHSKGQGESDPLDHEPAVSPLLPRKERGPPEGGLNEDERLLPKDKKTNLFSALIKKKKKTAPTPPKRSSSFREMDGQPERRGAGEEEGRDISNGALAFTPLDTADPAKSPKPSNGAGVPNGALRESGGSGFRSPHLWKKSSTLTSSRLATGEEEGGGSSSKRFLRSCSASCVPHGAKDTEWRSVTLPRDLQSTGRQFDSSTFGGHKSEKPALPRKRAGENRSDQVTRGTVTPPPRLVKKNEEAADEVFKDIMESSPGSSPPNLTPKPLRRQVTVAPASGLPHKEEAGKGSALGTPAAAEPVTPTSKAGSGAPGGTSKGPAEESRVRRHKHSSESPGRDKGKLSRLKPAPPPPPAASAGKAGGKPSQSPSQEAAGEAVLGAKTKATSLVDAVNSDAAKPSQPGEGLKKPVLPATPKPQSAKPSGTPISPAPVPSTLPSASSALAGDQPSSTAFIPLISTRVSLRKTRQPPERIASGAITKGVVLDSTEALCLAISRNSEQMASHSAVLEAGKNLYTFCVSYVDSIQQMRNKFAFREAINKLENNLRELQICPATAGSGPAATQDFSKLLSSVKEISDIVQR

Like-named read-outs stand apart in the source and are kept apart here.

Experiment [1] has as its target Abl tyrosine kinase (Abelson murine leukemia virus, UniProt P00521).
Experiment [2] concerns the target Abl (Homo sapiens, UniProt P00519). The settings on record: read-out: reported inhibition constant; reported value; cited from earlier work.
The mark [3] stands for this setting: read-out: inhibition constant, estimated from linear region of normalized delta-G vs. small molecule concentration, fixed 100 nM ATP.

As for `Cc1ccc(N)cc1Nc1nccc(-c2cccnc2)n1`, the Ki in experiment [1] (setting [3]) was 80 nM; in experiment [2] it was 1500 nM.
In experiment [1], `Cc1ccc([N+](=O)[O-])cc1Nc1nccc(-c2cccnc2)n1` showed a Ki of 110 nM.
Turning to `COC(=O)c1ccc(NCc2cc(O)ccc2O)cc1`, the values for the Ki in experiment [1] (setting [3]) and in experiment [2] were 1000 nM and 9000 nM, respectively.
